The values below come from patent publication US6358883B1, “Pesticidal and parasiticidal use of 1-aryl-1-(substituted thio, sulfinyl and sulfonyl)-2-nitroethane compounds” (American Cyanamid Company, priority 1998, dated 2002).

Like-named read-outs stand apart in the source and are kept apart here.

The assay deals with Root-knot nematode, Meloidogyne incognita J2 larvae. The following applies: potted tomato, scored 4 weeks following inoculation. From the text: Soil Nematicide Assay Targeting Root-knot Nematode, Meloidogyne Incognita on Potted Tomato
The test compound is solubilized in acetone and diluted with water to the required test concentration. Silty loam soil in a 3 inch pot with a 3-week-old tomato transplant is drenched with the test solution. Four thousand root-knot nematode Meloidogyne incognita J2 larvae are dispensed in a aqueous suspension onto the soil. The pots are kept in the greenhouse and 4 weeks following inoculation of the pots, plant roots are washed free of soil and scored for the degree of root galling using the root-knot galling index identified below.

In the case of `CCCSP(=O)(OCC)SCCC` [Ethoprophos, reference compound], the “Galling Index” value is on record as 0 (0) (Rate 10 ppm soil drench), 0^1 (0) (Rate 25 ppm soil drench) and 0^1 (0) (Rate 50 ppm soil drench).
